Source: paper PMC3880591 (Journal of medicinal chemistry, 2013)

Amino acid sequences for entries named in this document (tags omitted). A change or cut given only in a name is not applied to a line headed by its entry.
UniProt P41145: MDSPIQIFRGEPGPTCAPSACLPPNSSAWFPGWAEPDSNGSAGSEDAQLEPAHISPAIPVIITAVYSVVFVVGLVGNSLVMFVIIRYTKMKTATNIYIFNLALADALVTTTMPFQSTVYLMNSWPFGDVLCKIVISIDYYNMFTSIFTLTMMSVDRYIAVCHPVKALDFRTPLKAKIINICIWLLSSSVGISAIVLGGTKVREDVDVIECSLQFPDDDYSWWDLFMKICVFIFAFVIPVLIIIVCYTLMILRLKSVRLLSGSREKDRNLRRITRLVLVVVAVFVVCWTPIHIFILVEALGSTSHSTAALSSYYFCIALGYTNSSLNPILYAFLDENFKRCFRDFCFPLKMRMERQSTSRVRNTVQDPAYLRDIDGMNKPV

Legend:
Male Sprague Dawley rats = assay: ICSS, potentiation of brain stimulation reward by cocaine; assay type: in vivo, rat; details: cocaine 5.0 mg/kg i.p., 1 hr post-cocaine
human KOR = human KOR (Homo sapiens, UniProt P41145); details: ratio of Ki values; cited from earlier work

COC(=O)[C@H]1[C@@H](OC(=O)c2ccccc2)C[C@@H]2CC[C@H]1N2C [Cocaine]
Effect on ICSS thresholds (Male Sprague Dawley rats): decreased ICSS thresholds

CCNc1nc2cc3c(cc2s1)C[C@@H]1[C@@H]2CCCC[C@]32CCN1CC1CC1 [Compound 1c]
Selectivity δ/κ (human KOR): 290
